Results as given in article PMC6149774, “Inhibition by Commercial Aminoglycosides of Human Connexin Hemichannels Expressed in Bacteria” (Molecules : A Journal of Synthetic Chemistry and Natural …, 2017).

Target: T1, human Cx46 hemichannels (Homo sapiens, UniProt Q9Y6H8)
T1 construct: Details of the human Cx26, Cx43, and Cx46 DNAs used to transform LB2003 cells have been published; expressed in transfected cells; host or cells: E. coli LB2003 (with pREP4), IPTG-induced from pQE60
Experiment: Cx46-dependent growth complementation assay in LB2003 cells
Format: cell-based
Settings: read-out: Aminoglycoside concentration needed to inhibit growth complementation by 50% (IC50), dependent on Cx46; LB2003-pREP4 cells, NLM + 16 mM KCl, 10 µM IPTG, OD600 after 18 h; mean ± SEM

**Q.** For kanamycin A, which IC50 is on record?
**A.** 112 ± 5 µM
